US12398142B2, “Abelson non-tyrosine kinase compounds for the treatment of neurodegenerative diseases” (Emory University, priority 2019, dated 2025)
Where two headings read alike, the source gives them in different places.

Protein sequences, listed by entry. Tags and fused reporters are not part of them. Lines headed by an entry give the natural chain unless they say otherwise; changes in a name come on top.
UniProt Q12809: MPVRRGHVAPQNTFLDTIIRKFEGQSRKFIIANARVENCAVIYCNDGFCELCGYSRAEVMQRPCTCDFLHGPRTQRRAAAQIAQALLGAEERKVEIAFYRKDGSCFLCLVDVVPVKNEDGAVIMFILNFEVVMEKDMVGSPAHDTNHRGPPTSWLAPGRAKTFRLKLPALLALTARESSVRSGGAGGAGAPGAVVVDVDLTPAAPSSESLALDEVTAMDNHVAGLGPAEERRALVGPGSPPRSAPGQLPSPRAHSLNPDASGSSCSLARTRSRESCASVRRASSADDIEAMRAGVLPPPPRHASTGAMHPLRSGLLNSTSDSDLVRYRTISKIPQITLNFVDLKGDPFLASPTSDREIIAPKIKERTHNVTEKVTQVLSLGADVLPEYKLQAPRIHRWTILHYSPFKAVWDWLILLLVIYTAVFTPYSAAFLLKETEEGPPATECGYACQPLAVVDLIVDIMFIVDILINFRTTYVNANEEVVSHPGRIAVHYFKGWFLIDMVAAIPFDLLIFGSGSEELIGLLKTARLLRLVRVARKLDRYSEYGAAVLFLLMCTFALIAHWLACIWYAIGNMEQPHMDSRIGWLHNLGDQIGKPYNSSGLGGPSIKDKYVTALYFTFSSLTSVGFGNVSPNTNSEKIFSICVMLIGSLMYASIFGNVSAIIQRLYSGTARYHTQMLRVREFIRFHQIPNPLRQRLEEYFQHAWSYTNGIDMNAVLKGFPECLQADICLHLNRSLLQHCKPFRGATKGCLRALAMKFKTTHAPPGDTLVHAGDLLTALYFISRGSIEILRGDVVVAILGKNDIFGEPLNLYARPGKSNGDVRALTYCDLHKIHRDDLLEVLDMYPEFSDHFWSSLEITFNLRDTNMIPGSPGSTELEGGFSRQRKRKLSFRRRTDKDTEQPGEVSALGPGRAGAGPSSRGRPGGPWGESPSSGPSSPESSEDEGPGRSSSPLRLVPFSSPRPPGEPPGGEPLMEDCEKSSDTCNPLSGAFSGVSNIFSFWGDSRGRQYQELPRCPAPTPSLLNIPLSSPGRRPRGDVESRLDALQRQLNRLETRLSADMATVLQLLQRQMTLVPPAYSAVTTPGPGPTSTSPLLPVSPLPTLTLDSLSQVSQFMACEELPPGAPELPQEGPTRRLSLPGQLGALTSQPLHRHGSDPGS

Assays:
[1] = molecular target: T1, hERG (Homo sapiens (Human), UniProt Q12809); conditions: read-out: hERG IC50; summary table; unit given as mM
[2] = molecular target: T1, hERG; conditions: Weisberg et al., Cancer Cell 2005; cited from earlier work

Cc1cn(-c2cc(NC(=O)c3ccc(C)c(Nc4nccc(-c5cccnc5)n4)c3)cc(C(F)(F)F)c2)cn1 [Nilotinib, reference compound]
IC50 [1]: 0.00045 mM | IC50 [2]: 660 nM
